{"source": "patent US9290488B2", "about": "“Azetidine-substituted quinoxalines as opioid receptor like-1 modulators” (priority 2011, dated 2016)", "key": {"[1]": {"tested_on": "neuropathic hyperalgesia in rats", "assay": "Seltzer model: partial sciatic nerve ligation model of neuropathic pain (PWT)", "format": "in vivo, rat", "conditions": "for % Reversal [mean ± SEM]: partial sciatic nerve ligated rats"}, "[2]": {"assay": "In vitro metabolic stability, human liver microsomes", "conditions": "% of compound remaining after 30 min incubation at 37° C., 2 μM, 0.5 mg/mL human liver microsomes"}}, "data": [{"smiles": "O=C(O)[C@@H]1CCN1c1nc2ccccc2n([C@H]2C[C@H]3CCC[C@@H](C2)N3[C@@H]2C[C@@H]3CCCC[C@@H](C3)C2)c1=O", "values": [{"measurement": "% Reversal [mean ± SEM]", "setting": "[1]; 1 mg/kg oral, 1 hour after administration", "value": "37.5 ± 10.2", "unit": "%"}, {"measurement": "% Reversal [mean ± SEM]", "setting": "[1]; 1 mg/kg oral, 3 hours after administration", "value": "42.5 ± 7.6", "unit": "%"}, {"measurement": "% Reversal [mean ± SEM]", "setting": "[1]; 1 mg/kg oral, 5 hours after administration", "value": "39.4 ± 10.4", "unit": "%"}, {"measurement": "% Reversal [mean ± SEM]", "setting": "[1]; 1 mg/kg oral, 7 hours after administration", "value": "33.7 ± 7.7", "unit": "%"}, {"measurement": "% Reversal [mean ± SEM]", "setting": "[1]; 1 mg/kg oral, pre-administration", "value": 0, "unit": "%"}, {"measurement": "% Reversal [mean ± SEM]", "setting": "[1]; 3 mg/kg oral, 1 hour after administration", "value": "39.0 ± 6.3", "unit": "%"}, {"measurement": "% Reversal [mean ± SEM]", "setting": "[1]; 3 mg/kg oral, 3 hours after administration", "value": "46.8 ± 5.7", "unit": "%"}, {"measurement": "% Reversal [mean ± SEM]", "setting": "[1]; 3 mg/kg oral, 5 hours after administration", "value": "34.1 ± 6.5", "unit": "%"}, {"measurement": "% Reversal [mean ± SEM]", "setting": "[1]; 3 mg/kg oral, 7 hours after administration", "value": "25.7 ± 6.5", "unit": "%"}, {"measurement": "% Reversal [mean ± SEM]", "setting": "[1]; 3 mg/kg oral, pre-administration", "value": 0, "unit": "%"}, {"measurement": "% Reversal [mean ± SEM]", "setting": "[1]; 10 mg/kg oral, 1 hour after administration", "value": "39.3 ± 7.6", "unit": "%"}, {"measurement": "% Reversal [mean ± SEM]", "setting": "[1]; 10 mg/kg oral, 3 hours after administration", "value": "42.4 ± 7.0", "unit": "%"}, {"measurement": "% Reversal [mean ± SEM]", "setting": "[1]; 10 mg/kg oral, 7 hours after administration", "value": "29.5 ± 5.1", "unit": "%"}, {"measurement": "% Reversal [mean ± SEM]", "setting": "[1]; 10 mg/kg oral, pre-administration", "value": 0, "unit": "%"}, {"measurement": "reversal of neuropathic hyperalgesia compared with pregabalin control", "setting": "[1]; 1, 3, or 10 mg/kg, all measured time-points, pregabalin 10 mg/kg", "value": "more effective reversal than the pregabalin control"}, {"measurement": "% reversal in rats that underwent sham surgery", "setting": "[1]; sham surgery rats, 3 mg/kg, after 3 hrs (highest value of the sham groups)", "value": 95.3, "unit": "%"}]}, {"smiles": "O=C(O)[C@@H]1CCN1c1nc2ccccc2n([C@H]2C[C@H]3CCC[C@@H](C2)N3[C@H]2C[C@@H]3CCC[C@@H](C3)C2)c1=O", "values": [{"measurement": "Metabolic Stability (%) Human", "setting": "[2]", "value": "94 100%"}]}]}
